Yeast mating assay B: variants of the scFv Ab-14

The target is the same throughout: PDVDLGDISGINAS, from the HR2 region of SARS-CoV-2 spike.

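Phage display of a naive human antibody library on the peptide gave the parent. This is the validation round: designs drawn from the data on random variants, tested in the same kind of assay. Group labels follow the data file (Ctrl: baseline library sampled from a position-specific scoring matrix, with some repeated check sequences; GP: Gaussian process model; GPLM: also part of the Gaussian process libraries; Gen: genetic algorithm; Gibbs: Gibbs sampling; a sequence that several methods proposed may carry one label only). AlphaSeq pools MATa yeast showing the antibodies with MATalpha yeast showing the peptide. Mating (16 h, 30 °C) was followed by selection of diploids and sequencing of their barcodes. A regression on co-assayed BCL2-family reference pairs converts the normalised counts of each replicate to an apparent Kd. The assay was run in six technical replicates.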

Ab-14 is the parent antibody, in scFv form: VH, then the linker GGGGSGGGGSGGGGS, then VL. The light chain is unchanged in all variants.
VH: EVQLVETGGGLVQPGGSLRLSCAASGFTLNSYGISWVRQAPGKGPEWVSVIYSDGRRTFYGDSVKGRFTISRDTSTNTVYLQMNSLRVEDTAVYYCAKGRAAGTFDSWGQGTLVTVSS
VL: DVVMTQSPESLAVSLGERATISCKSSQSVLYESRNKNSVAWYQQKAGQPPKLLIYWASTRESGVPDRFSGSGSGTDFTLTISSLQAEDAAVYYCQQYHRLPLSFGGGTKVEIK

The parent's heavy chain CDRs are GFTLNSYGIS, VIYSDGRRTFYGDSVK, GRAAGTFDS; each variant's own CDRs replace them letter for letter.
Numbers give log10(Kd / nM), so 0 is 1 nM and 3 is 1 µM. Smaller is tighter.
Averages over replicates are reported, and they cover detected replicates only.
Where no diploid with the target was found in that replicate, the entry reads "nd": below detection, most likely a poor binder, though not proof of it.
The authors averaged sequences with at least three values out of six and counted those with two or fewer as poor binders.
Of ten entries with the parent sequence, four were seen in most replicates (averages 0.34 to 2.37), three in one and three in none, so single entries are noisy.
Three control strains display no target. For all heavy chain designs, 1% of the pairings with them gave a signal, with a median of 2.08 and one signal in twenty below 0.84, so weak values seen in few replicates may be background. For each scFv, signals with the empty controls are counted beside the result.
The range of this assay differs from that of the first round, and the authors advise against merging the two.
A sequence that the file lists under several names has all its replicates listed entry by entry, parted by semicolons.

Variant GFTLNSYGVS / VIYSDGRRTFYGDSVR / GQSAGTFDD [Ctrl] gave nd, nd, nd, nd, nd, nd (controls 0 of 18).
Variant GFTLNDYGIS / VIYSDGLRTFYGDSVK / GRAAGYFDS [Ctrl] gave nd, nd, nd, nd, nd, nd (controls 0 of 18).
Variant GFTLNHYGIS / VIYSDGRRTFYGDSVK / GREAGTFDS [Ctrl] gave 1.00, 0.22, 1.34, 0.32, 0.27, 0.73 (mean 0.65; controls 0 of 18).
Variant GDTLNSYGIS / VIYSDGRRTFYGDSVK / GEAAGKFDS [Ctrl] gave 0.99, nd, nd, nd, 1.18, nd (mean 1.09; controls 0 of 18).
Variant GFTLNSYGIS / VIYSDGRRTQYHDSVK / GGAAVTADL [Ctrl] gave nd, nd, nd, nd, nd, nd (controls 0 of 18).
Variant GFTLNSYSIS / VIYSDGRRTFYRDSVK / GRAAGTFKS [Ctrl] gave nd, 1.63, nd, nd, nd, nd (controls 1 of 18).
Variant GFTLNSYGSS / VIYSDGMRTFYGDSVK / GRAAGTFDS [Ctrl] gave nd, nd, nd, nd, nd, nd (controls 1 of 18).
Variant GFTLNSYQIS / VIYSDGRRTFYGDSVK / GEYAGTFDS [Ctrl] gave nd, nd, nd, 2.08, nd, nd (controls 0 of 18).
Variant GFTLNSYGIS / VIYSDGRRTFYHDSVK / GRAAGAFDS [Ctrl] gave nd, nd, nd, nd, nd, nd (controls 0 of 18).
Variant GFTLNSYGIS / VIYSDGRRTFYGDSVK / GRCAGTFDS [Ctrl] gave nd, 2.20, 3.21, 2.41, 2.43, nd (mean 2.56; controls 0 of 18).
Variant GFTLNEYPIS / VIYSDGRRTAYTDSVK / GRAAGTFDS [Ctrl] gave nd, nd, nd, nd, nd, nd (controls 0 of 18).
Variant GFTLNQYGIS / VIYSDGERTFYGDSVK / GGAAGTFDS [Ctrl] gave nd, nd, nd, nd, nd, nd (controls 0 of 18).
Variant GFTLNSYGIS / VIYSDGMRTQYGDSVK / GRAAGAFDS [Ctrl] gave nd, nd, nd, nd, nd, 2.30 (controls 0 of 18).
Variant GFTLNSYGIS / VIYSDGRRTFYGDSVK / GRAALQFDS [Ctrl] gave nd, nd, nd, nd, nd, nd (controls 0 of 18).
Variant GFSLNAYGIS / VIYSDGRRTFYSDSVK / GRAAGTFDS [Ctrl] gave 2.68, 0.84, 1.20, 2.59, nd, 1.84 (mean 1.83; controls 0 of 18).
Variant GFTLNSYGIS / VIYSDGRRTFYGDSVK / WQAAHTFDS [Ctrl] gave nd, nd, nd, nd, nd, nd (controls 0 of 18).
Variant GFTINSYGIS / VIYSDGYRTFYDDSVK / GQAASTFDS [Ctrl] gave nd, nd, nd, nd, nd, nd (controls 0 of 18).
Variant GFALNSYGIS / VIYSDGRRTFYMDSVK / GRAYGTFDQ [Ctrl] gave nd, nd, nd, nd, nd, nd (controls 0 of 18).
Variant GFTLLSYGIS / VIYSDGRRTFYGDSVK / RRAAGTFDQ [Ctrl] gave nd, nd, nd, nd, nd, nd (controls 0 of 18).
Variant GFTLTSYGIS / VIYSDGRRVFYGDSVK / GRAAGTFNS [Ctrl] gave nd, 2.47, 2.35, 2.27, 1.33, nd (mean 2.10; controls 0 of 18).
Variant GFTLNSYGIS / VIYSDGSRTAYGDSVK / GREAGTFPS [Ctrl] gave nd, nd, nd, nd, nd, 2.41 (controls 2 of 18).
Variant GFTLNMYGIS / VIYSDGRRTFYTDSVK / GRAAGTNVS [Ctrl] gave nd, nd, nd, nd, nd, nd (controls 0 of 18).
Variant GFTLLEYGIH / VIYSDGRRTFYGDSVK / GRAAGTFDE [Ctrl] gave nd, 1.13, nd, nd, 1.83, 2.83 (mean 1.93; controls 1 of 18).
Variant GFCLGSYGIS / VIYADGLRTFYGDSVK / GRAAGTICS [Ctrl] gave nd, nd, nd, nd, nd, nd (controls 0 of 18).
Variant GFTLNSYGPS / VIYSDGRRTFYGDSVK / GRGAGTFDS [Ctrl] gave 1.02, nd, 1.12, nd, nd, nd (mean 1.07; controls 0 of 18).
Variant GNTLNSYGIS / VIYSDGWRTFYGDSVK / GRAATTFDS [Ctrl] gave 0.77, nd, nd, nd, nd, nd (controls 0 of 18).
Variant GFTLNSYGIS / VIYSDGRRTSYGDNVK / GRMAGTFDS [Ctrl] gave nd, nd, nd, nd, nd, nd (controls 0 of 18).
Variant GFTLNSYGIS / VIYSDGRRTFYGPSVK / RRAAGTFDS [Ctrl] gave nd, nd, nd, nd, nd, nd (controls 0 of 18).
Variant GFDLNSYGIS / VIYADGRRTFYGDSVK / GREAGTFDS [Ctrl+GP_Gibbs] gave -0.36, -0.50, -0.46, -0.45, -0.46, -0.32; 0.13, -0.42, -0.27, -0.38, -0.61, -0.41 (mean -0.37; controls 0 of 36).
Variant GETLNSYGIS / VIYSDGRRTAYGDSVK / GDLAGTFDQ [Ctrl] gave 1.46, 0.85, 0.33, 0.58, 0.63, 0.94 (mean 0.80; controls 0 of 18).
Variant GFTMNEYGIS / VIYSDGRRTFYGDSVK / GRAAGFFDS [Ctrl] gave nd, 1.74, nd, nd, nd, nd (controls 0 of 18).
Variant GFEINSYGIS / VIYSDGRRTFYGDSVK / GDAAGTFDS [Ctrl] gave 2.15, 1.71, 1.64, 1.97, 3.25, 2.92 (mean 2.27; controls 2 of 18).
Variant GFQLNSYGIS / VIYSDGRRTAYSDSVK / GRAAGTFDL [Ctrl] gave nd, 1.57, nd, nd, nd, nd (controls 0 of 18).
Variant GFTLNSYGIS / VIYSDGRRTFYVDEVK / GRAAGTFDS [Ctrl] gave 2.21, 1.38, nd, 2.00, 3.19, nd (mean 2.20; controls 0 of 18).
Variant GFTLNSYGIS / VIYSDGRRQIYGDSVK / GRAAGTFDM [Ctrl] gave nd, nd, nd, nd, nd, nd (controls 0 of 18).
Variant GFNLNSYGIS / VIYSDGRRTFYGDSVK / GRAAGTFDS [Ctrl+GPLM_Gen] gave 0.83, 0.46, 0.99, 1.19, 0.67, 0.99; 1.57, 0.74, 1.25, nd, 1.15, 1.33 (mean 1.01; controls 0 of 36).
Variant GFNLNSFGIS / VIYSDGRRKFYHDSVK / GRAAGTIDS [Ctrl] gave nd, nd, nd, nd, nd, nd (controls 0 of 18).
Variant GFTCNSYGIS / VIYSDGRRTFYGDDVK / GRAAGTFDS [Ctrl] gave nd, nd, nd, nd, nd, nd (controls 0 of 18).
Variant GFSLNSYGIS / VIYSVGRRTFYGDSVK / GRAKQTFDS [Ctrl] gave nd, nd, nd, nd, nd, nd (controls 0 of 18).
Variant GFSINSYGIS / VIYGDGRRTFYGDSVS / GSVAGTFDS [Ctrl] gave 0.84, 1.66, 1.09, 0.84, 1.43, 1.41 (mean 1.21; controls 1 of 18).
Variant GFTLNDYGIS / VIYSDGRRTSYDDSVK / GHAACTFDS [Ctrl] gave nd, nd, nd, nd, nd, nd (controls 0 of 18).
Variant GFDLNSYGIS / VIYSDGRRTFYADSVK / GRAVGTFDS [Ctrl] gave nd, nd, nd, nd, nd, nd (controls 0 of 18).
Variant GFTLNEYGIS / VIYSDGRRTFYADSVK / GRRAGTFDS [Ctrl] gave 0.08, 0.43, 0.13, -0.51, -0.06, -0.10 (mean -0.01; controls 0 of 18).

Excerpt, the first 5 entries:

CDR-H1,CDR-H2,CDR-H3,group,"log10 Kd, replicates","log10 Kd (nM), mean",signal with controls
GFTLNSYGVS,VIYSDGRRTFYGDSVR,GQSAGTFDD,Ctrl,"nd, nd, nd, nd, nd, nd",nd,0 of 18
GFTLNDYGIS,VIYSDGLRTFYGDSVK,GRAAGYFDS,Ctrl,"nd, nd, nd, nd, nd, nd",nd,0 of 18
GFTLNHYGIS,VIYSDGRRTFYGDSVK,GREAGTFDS,Ctrl,"1.00, 0.22, 1.34, 0.32, 0.27, 0.73",0.65,0 of 18
GDTLNSYGIS,VIYSDGRRTFYGDSVK,GEAAGKFDS,Ctrl,"0.99, nd, nd, nd, 1.18, nd",1.09,0 of 18
GFTLNSYGIS,VIYSDGRRTQYHDSVK,GGAAVTADL,Ctrl,"nd, nd, nd, nd, nd, nd",nd,0 of 18

Reference: Li et al. 2023, doi:10.1038/s41467-023-39022-2. File: FLAb, binding data.